Only some compounds are listed: those with a hit (about 2.9% of all), similar ones and a draw of the others.
Rango release inh – prevents RanGTP from dissociating the Rango-importin beta complex | Biochemical FRET Rango-importin beta, RanGTP-induced dissociation | Potency, µM (top dose mostly 46.1 µM) | O95149+P62826 | AID 540253 | hit rate 0.071% among 340,000; note: nearly all actives have a fitted effect of over 45% in size
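Rango FRET biosensor (snurportin-1 IBB flanked by N-terminal EYFP and C-terminal CFP10) at 0.1 uM, with 0.25 uM importin beta in PBS, 1mM DTT, 0.02% Tween-20, 0.1% BSA. 0.6 uM Ran, 2mM GTP and 0.2 uM RCC1 were then added for 45 min at room temperature. Inhibition read as loss of FRET rise.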
DRD3 antagonist – D3 dopamine receptor (human) antagonism; AID 652054; D3R cells, DiscoveRx beta-arrestin luminescence, antagonist mode; hits give low values; P35462; max response, negative = inhibition, %; hit rate 2.5% among 360,000; in the data active = max response below about -50%; inconclusive = no clear call, values can overlap the other calls
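Cells plated overnight at 1500 cells/well, then exposed to library compounds with dopamine controls for 90 minutes at 37 degrees C. DiscoveRx reagent added for 30–60 minutes at room temperature; luminescence read, quantitative HTS format.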
TSG101-PTAP inh – blocks PTAP/TSG101 interaction to inhibit HIV-1 budding; Fluorescence polarization, FITC-PTAP peptide / Tsg101 binding; Potency, µM (titrated, usually from 115 µM), most hits filed as inhibitors; 340,000 tested, under 10 active; AID 493005; active = well fitted inhibition curve with a large enough effect in the main read-out, with a control signal flat, not every such curve was filed as active; inconclusive = small, poorly fitted or top-dose-only effect, or effect the other way, or a change in a side signal; inactive = no such curve, though single readings can be large or run the other way
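Tsg101 binding domain (10 uM final) was mixed with compound and a FITC-labeled PTAP peptide (50 nM final) in HEPES pH 7.5 buffer with NaCl, Tween 20, EDTA and TCEP; fluorescence polarization was read after 20 min at r.t.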
Rango complex inh – prevents formation of the Rango-importin beta complex. Q14974. Rango CFP/YFP FRET sensor + importin beta, 45 min. Potency, µM (top dose mostly 92.2 µM). hit rate 0.031% among 340,000; note: nearly all actives have a fitted effect of over 15% in size
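Inhibition scored from the CFP 486 nm/YFP 530 nm FRET ratio 45 min after adding 0.125 microM importin beta to 50 nM Rango biosensor preincubated 5 min with compound (room temperature, PBS with DTT, Tween-20, BSA). No-importin wells as positive control.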
D3 ag – agonists of human D3 dopamine receptor | D3R DiscoveRx beta-arrestin cells, luminescence, 90 min | hit rate 0.58% among 410,000 | P35462 | max activation, % | AID 652048; in the data active = max activation above about 30%
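Cells at 1500/well, incubated overnight, then treated with pinned compounds (dopamine as control) for 90 min at 37 degrees C. DiscoveRx reagent added for 30 - 60 minutes at room temperature; luminescence read.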
MmCpn inh – blocks the Methanococcus maripaludis chaperonin Mm-Cpn; hit rate 0.031% among 330,000; Potency, µM (highest dose often 76.9 µM), usual class: inhibitors; purified Mm-Cpn ATPase, ADP Transcreener TR-FRET; active = well fitted inhibition curve with a large enough effect; inconclusive = small, poorly fitted or top-dose-only effect; note: nearly all actives have a fitted effect of over 80% in size
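Inhibition of chaperonin ATP hydrolysis is measured as reduced ADP production, detected by competitive TR-FRET in which signal falls with ADP. Final enzyme 25 nM and ATP 10 uM, reacted 30 min at 37°C.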
Numbers stand for hits; 0 = inactive; ? = inconclusive; - = no result given. Unless noted, calls come from the whole dose curve.

SMILES | Rango release inh | DRD3 antagonist | TSG101-PTAP inh | Rango complex inh | D3 ag | MmCpn inh
O=C(NCC1(N2CCOCC2)CCCCC1)c1cccc(S(=O)(=O)N2CCc3ccccc3C2)c1 | 0 | 0 | 0 | ? | 0 | ?
O=C(NCCCN1CCOCC1)c1cccc(S(=O)(=O)N2CCc3ccccc3C2)c1 | 0 | -57 | 0 | 0 | 0 | 0
Cc1c(NC(=O)c2ccc(CN3CCc4ccccc4C3)cc2)c(=O)n(-c2ccccc2)n1C | 0 | -79 | 0 | 0 | 0 | 0
Cc1c(NC(=O)c2ccc(F)cc2)c(=O)n(-c2ccccc2)n1C | 0 | 0 | 0 | 0 | 0 | 0
O=C(COCc1cc(-c2ccco2)on1)Nc1cccc(Cl)c1Cl | - | - | - | - | 0 | -
Cc1c(Cl)cccc1Nc1nn2c(=O)c3ccc(C(=O)NCCc4ccccc4)cc3nc2s1 | - | - | - | - | 0 | -
CCCCN(CC)CCNC(=O)Cn1cnc2sc(C)c(S(=O)(=O)N3CCN(c4ccccc4OC)CC3)c2c1=O | - | - | - | - | 0 | -
O=C(Nc1ccc(Cl)cc1)c1ccc(CN2CCc3ccccc3C2)cc1 | 0 | 0 | 0 | 0 | 0 | 0
CCOc1ccccc1NC(=O)c1ccc(CN2CCc3ccccc3C2)cc1 | 0 | -70 | 0 | 0 | 0 | 0
CC(=O)c1cccc(NC(=O)c2ccc(CN3CCc4ccccc4C3)cc2)c1 | 0 | -89 | 0 | ? | 0 | 0
Cc1cc(C)c(NC(=O)c2ccc(CN3CCc4ccccc4C3)cc2)c(C)c1 | 0 | -53 | 0 | 0 | 0 | 0
COc1ccc(NC(=O)c2ccc(CN3CCc4ccccc4C3)cc2)cc1OC | 0 | -64 | 0 | 0 | 0 | 0
O=C(O)c1ccccc1C(c1ccc(O)cc1)c1ccc(O)cc1 | 0 | 0 | 0 | 0 | 0 | 0
COc1cccc(NC(=O)c2ccc(CN3CCN(c4ccccc4)CC3)cc2)c1 | 0 | 0 | 0 | 0 | 0 | 0
COc1cccc(NC(=O)c2ccc(CN3CCc4ccccc4C3)cc2)c1 | ? | -102 | 0 | 0 | 0 | 0
CCOc1ccc(N2CC(C)Cn3c2nc2c3c(=O)n(CC(=O)O)c(=O)n2C)cc1 (stereo not given) | - | - | - | - | 0 | -
CCc1nc2nc(C)cc(Nc3cc(C)ccc3C)n2n1 | - | - | - | - | 0 | -
CCc1ccc(N2CC(C(=O)N/N=C/c3cc([N+](=O)[O-])ccc3O)CC2=O)cc1 (stereo not given) | 0 | -63 | 0 | 0 | 0 | 0
O=C(N/N=C/c1cc([N+](=O)[O-])ccc1O)c1ccc2c(c1)OCCO2 | 0 | -64 | 0 | 0 | 0 | 0
O=C(N/N=C/c1cc([N+](=O)[O-])ccc1O)C1CC1 | 0 | -86 | 0 | 0 | 0 | 0
O=C(N/N=C/c1cc([N+](=O)[O-])ccc1O)C(O)(c1ccccc1)c1ccccc1 | 0 | -55 | 0 | 0 | 0 | 0
CCOC(=O)Cc1ccc(NC(=O)N(C(C)C)C2CCN(C(C)=O)CC2)cc1 | - | - | - | - | 0 | -
CC1CCN(S(=O)(=O)c2ccc3c(c2)N(CC(=O)NCCCN(Cc2ccccc2)C(C)C)C(=O)CO3)CC1 | 0 | 0 | 0 | 0 | 0 | 0
CCN(CCCNC(=O)CN1C(=O)COc2ccc(S(=O)(=O)N3CCC(C)CC3)cc21)Cc1ccccc1 | 0 | -74 | 0 | 0 | 0 | 0
COC(=O)c1scc(-c2ccc(C)cc2)c1S(=O)(=O)N1CCN(c2ccc(OC)cc2)CC1 | - | - | - | - | 0 | -
SMILES | Rango release inh | DRD3 antagonist | TSG101-PTAP inh | Rango complex inh | D3 ag | MmCpn inh
COc1cccc(C=NCC(C)N=Cc2cccc(OC)c2O)c1O (stereo not given) | 0 | -103 | 0 | 0 | 0 | 0
COc1ccccc1COCC(O)CNCC1(N2CCCCC2)CCCCC1 (stereo not given) | 0 | -60 | 0 | 0 | 0 | 0
COc1cc(C(C)=O)ccc1OCC(O)CNCC1(N2CCCCC2)CCCCC1 (stereo not given) | 0 | 0 | 0 | 0 | 0 | 0
COc1ccc(C(CC(=O)Nc2cc(OC)c(OC)c(OC)c2)N2Cc3ccccc3C2=O)cc1 (stereo not given) | - | - | - | - | 0 | -
CCC1Nc2cc(Cl)c(S(N)(=O)=O)cc2S(=O)(=O)N1 (stereo not given) | - | - | - | - | 0 | -
NS(=O)(=O)c1cc2c(cc1Cl)NC(CC1CCCC1)NS2(=O)=O (stereo not given) | 0 | 0 | 0 | 58µM | 0 | 0
COc1ccc(NC(=O)CCc2nnc3n(C)c(=O)c4sccc4n23)cc1Cl | - | - | - | - | 0 | -
CCOc1ccc(NC(=O)CN2CCN(CC(=O)Nc3ccccc3OCC)CC2)cc1 | - | - | - | - | 0 | -
CC(CC(=O)Nc1ccc2c(c1)c(=O)n(C)n2-c1ccccc1)c1ccccc1 (stereo not given) | - | -78 | - | - | 0 | -
O=C(Nc1ccccc1)Nc1ccc(Cl)c([N+](=O)[O-])c1 | 0 | 0 | 0 | 0 | 0 | 0
CC(CC(=O)Nc1cccnc1)c1ccccc1 (stereo not given) | 0 | 0 | 0 | 0 | 42 | 0
O=C(Nc1ccc(S(=O)(=O)NC2=NCCCCC2)cc1)c1ccc(Cl)c([N+](=O)[O-])c1 | 0 | 0 | 0 | 0 | 0 | 0
CC(CC(=O)Nc1ccc(Cl)c([N+](=O)[O-])c1)c1ccccc1 (stereo not given) | 0 | -57 | 0 | 0 | 0 | 0
Cc1cccc(C)c1NS(=O)(=O)c1ccc(NC(=O)c2ccc(Cl)c([N+](=O)[O-])c2)cc1 | 0 | -78 | 0 | 0 | 0 | 0
Cc1ccc(CCNC(=O)c2cc(S(=O)(=O)N3CCCC3)cn2C)cc1 | 0 | -145 | 0 | ? | 0 | 0
O=C(NCCc1ccccc1)c1ccc2c(c1)CCN2S(=O)(=O)c1ccc(Br)cc1 | - | - | - | - | 0 | -
Cc1ccc(S(=O)(=O)N2CCc3cc(C(=O)NCCc4ccccc4)ccc32)cc1 | - | - | - | - | 64 | -
Cc1ccc(S(=O)(=O)N2CCC(C(=O)NCCc3ccc(S(N)(=O)=O)cc3)CC2)cc1 | 0 | 0 | 0 | 0 | 37 | 0
Cc1ccc(S(=O)(=O)N2CCC(C(=O)N[C@@H](Cc3ccccc3)C(=O)O)CC2)cc1 | 0 | 0 | 0 | 0 | 37 | 0
COc1ccc(NC(c2ccc(F)cc2)c2nnc(-c3ccccc3Cl)o2)cc1Cl (stereo not given) | - | - | - | - | 0 | -
CC(C(=O)O)c1ccc(/C=C2\CCCCC2=O)cc1 (stereo not given) | - | - | - | - | 0 | -
OC1(c2ccc(F)cc2)CCN(Cc2ccccc2)C1 (stereo not given) | 0 | 0 | 0 | 0 | 0 | 0
OC1(c2ccccc2)CCN(Cc2ccccc2)CC1 | 0 | -80 | 0 | 0 | 0 | 0
OC1(c2ccc(F)cc2)CCN(Cc2cccnc2)CC1 | 0 | -61 | 0 | 0 | 0 | 0
O=S(=O)(c1ccc(F)cc1)N1CCC(O)(c2ccc3c(c2)OCO3)CC1 | 0 | 0 | 0 | 0 | 0 | 0
OC1(c2ccc3c(c2)OCO3)CCN(Cc2ccc(F)cc2)CC1 | 0 | -99 | 0 | 0 | 0 | 0

Assay outcomes: PubChem BioAssay, National Center for Advancing Translational Sciences (NCATS)
